From BindingDB's records for doi:10.1021/jm9905965 (National Institute of Diabetes, 2000)

Chains of the proteins cited; added tags and fusions are not shown.
UniProt P25099, whole entry: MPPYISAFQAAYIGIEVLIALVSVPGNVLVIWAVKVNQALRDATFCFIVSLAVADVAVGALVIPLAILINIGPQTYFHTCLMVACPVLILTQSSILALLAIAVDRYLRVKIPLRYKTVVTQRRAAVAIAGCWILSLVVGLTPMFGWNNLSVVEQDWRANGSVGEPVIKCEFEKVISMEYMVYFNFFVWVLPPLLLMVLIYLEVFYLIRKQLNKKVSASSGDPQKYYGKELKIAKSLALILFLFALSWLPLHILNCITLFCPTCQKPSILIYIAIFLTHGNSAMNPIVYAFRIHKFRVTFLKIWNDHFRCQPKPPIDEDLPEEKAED

Target: Adenosine receptor A1 (Rattus norvegicus, UniProt P25099)

pKi: 7.72
Compound: OC[C@H]1O[C@@H](n2cnc3c(NCc4cccc(I)c4)nc(Cl)nc32)[C@H](O)[C@@H]1O [(2R,3R,4S,5R)-2-[2-Chloro-6-(3-iodo-benzylamino)-purin-9-yl]-5-hydroxymethyl-tetrahydro-furan-3,4-diol]

pKi: −log10 of the molar value.
